In patent publication US20090304692A1, “TRIAZINE COMPOUNDS AS PI3 KINASE AND MTOR INHIBITORS” (Wyeth, priority 2008, published 2009):

Target: Human mTOR (FLAG-TOR) (Homo sapiens, UniProt P42345)
Assay: mTOR kinase assay (DELFIA format, purified enzyme)
Type: biochemical

4-{[(4-{4-morpholin-4-yl-6-[(3S)-tetrahydrofuran-3-yloxy]-1,3,5-triazin-2-yl}phenyl)carbamoyl]amino}-N-(2-pyrrolidin-1-ylethyl)benzamide [Example 521]
IC50: 300 pM
